The values below come from patent US20240285576A1, “R-MDMA FOR TREATMENT OF PAIN” (Mind Medicine, Inc., priority 2023, published 2024).

The assay deals with Rats. The assay is described as follows: Inflammatory pain: carrageenan-induced hyperalgesia, Hargreaves test. Conditions: R-MDMA 12.5 and 25 mg/kg PO.

The structures appear in SMILES notation.

Consider `CN[C@H](C)Cc1ccc2c(c1)OCO2` [R-MDMA], for which, for the setting “3 hours post-carrageenan, Hargreaves test at 60 and 120 minutes post dose”, the thermal hyperalgesia result was “significant decrease”. Moreover, the “latency to withdraw the injured paw” value (compared to the vehicle treatment (P<0.001, P<0.01), FIG. 5) is recorded as “significantly increased”.
